Values of other authors, collected in US7816404B2, “Methods for the preparation and use of ferric pyrophosphate citrate chelate compositions” (Rockwell Medical Technologies, Inc., priority 2007, dated 2010).

How the values were obtained:
[1] = formulated in water containing 0.9% sodium chloride, during injection
[2] = after intravenous injection

Bioavailable iron [2]: about half
Substance: iron dextran
Adverse reactions [1]: occasionally causes severe allergic reactions, fever and rashes during injection
